Target: T1, PilB (CtPilB), type IV pilus assembly ATPase (Chloracidobacterium thermophilum, UniProt G2LDI3)
T1 construct: gene Cabther_A1696
Assay: biochemical

Amino acid sequences for entries named in this document (tags omitted).
UniProt G2LDI3, entry or part of it: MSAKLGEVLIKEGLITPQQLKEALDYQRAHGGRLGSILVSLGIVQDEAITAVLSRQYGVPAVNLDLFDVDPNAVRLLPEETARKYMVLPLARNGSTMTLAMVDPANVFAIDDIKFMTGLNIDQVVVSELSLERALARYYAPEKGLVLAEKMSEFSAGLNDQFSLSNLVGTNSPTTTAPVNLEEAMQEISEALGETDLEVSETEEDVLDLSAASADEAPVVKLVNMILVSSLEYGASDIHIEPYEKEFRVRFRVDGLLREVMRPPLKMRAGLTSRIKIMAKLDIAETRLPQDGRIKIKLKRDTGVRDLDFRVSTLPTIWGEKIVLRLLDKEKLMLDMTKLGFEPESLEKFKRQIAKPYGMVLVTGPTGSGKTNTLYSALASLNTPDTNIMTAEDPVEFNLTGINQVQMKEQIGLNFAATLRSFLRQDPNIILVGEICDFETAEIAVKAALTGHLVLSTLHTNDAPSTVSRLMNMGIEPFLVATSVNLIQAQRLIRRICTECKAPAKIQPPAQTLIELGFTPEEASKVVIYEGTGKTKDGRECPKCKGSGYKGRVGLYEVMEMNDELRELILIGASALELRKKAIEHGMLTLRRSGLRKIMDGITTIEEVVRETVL

## O=c1c(O)c(-c2ccc(O)c(O)c2)oc2cc(O)cc(O)c12 [compound 77, quercetin]
  IC50: 2500 nM

Reference: paper PMC8546689, “High-Throughput Screen for Inhibitors of the Type IV Pilus Assembly ATPase PilB” (mSphere, 2021)
